Results published in ChEMBL document CHEMBL5576072, “Discovery of a potent and selective JAK1-targeting PROTAC degrader with anti-tumor activities” (Bioorg Med Chem Lett, 2024).
The source made the active and inactive calls. The rule behind the calls is not given here.

Protein sequences, listed by entry. Tags and fused reporters are not part of them. Lines headed by an entry give the natural chain unless they say otherwise; changes in a name come on top.
UniProt P23458: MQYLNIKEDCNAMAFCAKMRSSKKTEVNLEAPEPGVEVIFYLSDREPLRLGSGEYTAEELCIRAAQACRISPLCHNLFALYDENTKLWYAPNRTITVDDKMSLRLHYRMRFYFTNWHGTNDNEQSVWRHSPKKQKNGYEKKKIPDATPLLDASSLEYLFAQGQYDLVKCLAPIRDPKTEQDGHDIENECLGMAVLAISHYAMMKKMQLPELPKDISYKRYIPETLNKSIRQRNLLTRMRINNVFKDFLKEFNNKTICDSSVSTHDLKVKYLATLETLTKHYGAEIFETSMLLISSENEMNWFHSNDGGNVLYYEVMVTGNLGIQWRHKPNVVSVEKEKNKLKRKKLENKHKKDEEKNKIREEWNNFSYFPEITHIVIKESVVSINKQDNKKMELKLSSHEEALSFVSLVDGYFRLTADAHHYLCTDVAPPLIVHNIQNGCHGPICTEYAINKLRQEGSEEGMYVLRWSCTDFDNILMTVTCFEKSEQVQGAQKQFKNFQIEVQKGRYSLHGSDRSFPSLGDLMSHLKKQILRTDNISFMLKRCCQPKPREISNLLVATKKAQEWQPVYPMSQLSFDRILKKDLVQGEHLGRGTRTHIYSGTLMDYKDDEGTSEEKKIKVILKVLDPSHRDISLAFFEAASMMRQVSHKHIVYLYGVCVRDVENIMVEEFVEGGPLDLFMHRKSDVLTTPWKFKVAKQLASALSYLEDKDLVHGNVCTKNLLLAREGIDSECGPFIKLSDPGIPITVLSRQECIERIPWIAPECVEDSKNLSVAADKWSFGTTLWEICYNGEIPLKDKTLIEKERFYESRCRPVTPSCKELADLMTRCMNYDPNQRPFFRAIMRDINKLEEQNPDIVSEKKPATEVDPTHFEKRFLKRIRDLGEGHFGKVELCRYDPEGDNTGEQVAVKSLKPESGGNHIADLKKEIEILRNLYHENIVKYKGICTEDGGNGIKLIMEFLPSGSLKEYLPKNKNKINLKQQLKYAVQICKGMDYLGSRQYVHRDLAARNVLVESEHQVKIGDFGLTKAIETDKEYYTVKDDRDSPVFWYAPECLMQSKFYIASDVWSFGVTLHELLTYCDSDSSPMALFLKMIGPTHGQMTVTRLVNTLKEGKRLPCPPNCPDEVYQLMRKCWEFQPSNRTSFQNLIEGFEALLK
UniProt Q96SW2: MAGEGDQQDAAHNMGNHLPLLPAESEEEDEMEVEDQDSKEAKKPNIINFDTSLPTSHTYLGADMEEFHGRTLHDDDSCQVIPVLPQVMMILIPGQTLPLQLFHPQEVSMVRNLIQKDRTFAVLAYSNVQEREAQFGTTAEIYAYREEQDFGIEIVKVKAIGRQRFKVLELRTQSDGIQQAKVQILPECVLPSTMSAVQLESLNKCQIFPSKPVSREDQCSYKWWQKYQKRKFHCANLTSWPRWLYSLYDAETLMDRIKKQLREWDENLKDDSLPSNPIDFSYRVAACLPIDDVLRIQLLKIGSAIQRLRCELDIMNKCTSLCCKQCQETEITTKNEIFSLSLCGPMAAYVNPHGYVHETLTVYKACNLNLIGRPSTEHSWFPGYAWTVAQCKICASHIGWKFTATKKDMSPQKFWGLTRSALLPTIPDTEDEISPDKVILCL

Molecular target: Protein cereblon/Tyrosine-protein kinase JAK1 (Homo sapiens) (UniProt P23458+Q96SW2)
Assay: PROTAC activity at CRBN/JAK1 in HEL cells assessed as JAK1 degradation at 1 uM by Western blotting analysis
Format: cell-based

- Activity: inactive
Structure (SMILES): N#CCNC(=O)c1ccc(-c2ccnc(Nc3ccc(N4CCOCC4)cc3)n2)cc1 [MOMELOTINIB]
